Assays:
H1 receptors = H1 receptors (Homo sapiens, UniProt P35367); assay: biochemical; details: read-out: % inhibition of control binding at 10^−6M, H1
M1 receptors = M1 receptors (Homo sapiens, UniProt P11229); assay: biochemical; details: read-out: % inhibition of control binding at 10^−6M, M1
5-HT2C receptors = 5-HT2C receptors (Homo sapiens, UniProt P28335); assay: biochemical; details: read-out: % inhibition of control binding at 10^−6M, 5-HT2C
D3 receptors = D3 receptors (Homo sapiens, UniProt P35462); assay: biochemical; details: read-out: % inhibition of control binding at 10^−6M, D3
5-HT7 receptor = 5-HT7 receptor (Homo sapiens, UniProt P34969); assay: Radioligand binding, 5-HT7 ([3H]-5-CT displacement)
5-HT6 receptor = 5-HT6 receptor (Homo sapiens, UniProt P50406); assay: CHO-human-5HT6-Aequorin functional assay (ago-/antagonism); details: test concentration not given; for % inhibition of control agonist response: agonist effect, CHO-human-5HT6-Aequorin cells; for % inhibition of control antagonist response: antagonist effect vs 10^-6 M α-methylserotonin induced luminescence

Sequences of proteins named here, by UniProt entry; tags and fusion partners are left off. A change or cut given only in a name is not applied to a line headed by its entry. Residues count along the entry.
UniProt P35367, whole entry: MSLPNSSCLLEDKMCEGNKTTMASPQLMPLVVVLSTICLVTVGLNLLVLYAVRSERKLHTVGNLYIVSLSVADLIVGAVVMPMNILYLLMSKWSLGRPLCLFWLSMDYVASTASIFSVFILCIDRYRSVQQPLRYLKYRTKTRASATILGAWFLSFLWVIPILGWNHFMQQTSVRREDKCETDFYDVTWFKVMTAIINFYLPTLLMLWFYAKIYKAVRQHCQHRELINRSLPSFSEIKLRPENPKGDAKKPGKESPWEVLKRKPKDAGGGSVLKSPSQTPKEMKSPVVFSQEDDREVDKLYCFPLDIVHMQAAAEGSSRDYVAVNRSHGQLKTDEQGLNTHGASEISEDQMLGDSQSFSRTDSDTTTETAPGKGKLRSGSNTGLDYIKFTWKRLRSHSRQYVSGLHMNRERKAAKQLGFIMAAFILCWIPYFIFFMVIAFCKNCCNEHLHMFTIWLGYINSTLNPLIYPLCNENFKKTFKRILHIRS
UniProt P11229: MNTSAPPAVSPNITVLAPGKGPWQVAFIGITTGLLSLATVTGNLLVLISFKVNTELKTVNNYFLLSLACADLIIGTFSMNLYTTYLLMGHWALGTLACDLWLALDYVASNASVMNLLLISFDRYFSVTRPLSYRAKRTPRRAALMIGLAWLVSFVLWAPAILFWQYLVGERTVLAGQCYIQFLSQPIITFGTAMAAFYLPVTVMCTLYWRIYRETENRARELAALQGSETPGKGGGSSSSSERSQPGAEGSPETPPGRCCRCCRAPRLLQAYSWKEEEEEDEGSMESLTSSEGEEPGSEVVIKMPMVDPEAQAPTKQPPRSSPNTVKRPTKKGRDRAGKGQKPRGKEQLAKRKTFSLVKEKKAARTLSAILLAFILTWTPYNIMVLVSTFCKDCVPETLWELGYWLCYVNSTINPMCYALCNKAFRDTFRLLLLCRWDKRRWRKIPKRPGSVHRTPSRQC
UniProt P28335, 33-458: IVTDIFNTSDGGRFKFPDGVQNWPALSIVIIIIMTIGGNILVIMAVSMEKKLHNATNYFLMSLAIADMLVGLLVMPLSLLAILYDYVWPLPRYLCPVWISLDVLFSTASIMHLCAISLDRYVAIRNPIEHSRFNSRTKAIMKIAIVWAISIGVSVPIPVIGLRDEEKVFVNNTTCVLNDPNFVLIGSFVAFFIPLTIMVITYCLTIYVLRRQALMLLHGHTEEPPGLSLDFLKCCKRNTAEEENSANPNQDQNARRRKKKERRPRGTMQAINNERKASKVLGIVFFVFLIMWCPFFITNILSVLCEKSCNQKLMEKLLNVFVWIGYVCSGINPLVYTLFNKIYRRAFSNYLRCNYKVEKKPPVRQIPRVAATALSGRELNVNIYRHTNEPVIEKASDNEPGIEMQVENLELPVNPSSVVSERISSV
UniProt P35462, whole entry: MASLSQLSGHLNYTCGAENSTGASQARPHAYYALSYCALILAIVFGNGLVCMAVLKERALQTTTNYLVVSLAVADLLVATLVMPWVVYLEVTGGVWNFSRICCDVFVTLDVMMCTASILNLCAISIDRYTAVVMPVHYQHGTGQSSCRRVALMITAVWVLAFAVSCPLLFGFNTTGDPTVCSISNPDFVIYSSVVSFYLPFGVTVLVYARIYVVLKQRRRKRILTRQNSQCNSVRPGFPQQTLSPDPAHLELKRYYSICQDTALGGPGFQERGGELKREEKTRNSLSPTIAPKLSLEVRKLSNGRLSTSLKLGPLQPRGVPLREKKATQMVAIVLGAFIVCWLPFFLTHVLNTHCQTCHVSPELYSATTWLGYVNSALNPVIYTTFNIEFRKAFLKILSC
UniProt P34969, 1-432 limits assumed: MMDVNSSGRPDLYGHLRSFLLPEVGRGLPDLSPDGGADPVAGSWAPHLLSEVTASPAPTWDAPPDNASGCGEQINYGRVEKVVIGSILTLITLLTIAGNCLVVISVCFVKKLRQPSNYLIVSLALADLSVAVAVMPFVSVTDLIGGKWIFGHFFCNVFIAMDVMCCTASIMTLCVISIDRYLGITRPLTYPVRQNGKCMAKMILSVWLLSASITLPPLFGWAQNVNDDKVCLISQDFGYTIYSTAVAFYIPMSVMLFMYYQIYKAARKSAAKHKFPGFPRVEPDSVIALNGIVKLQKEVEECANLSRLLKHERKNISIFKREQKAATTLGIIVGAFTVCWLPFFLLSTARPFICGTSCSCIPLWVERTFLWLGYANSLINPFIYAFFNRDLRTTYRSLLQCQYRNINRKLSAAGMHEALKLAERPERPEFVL
UniProt P50406, whole entry: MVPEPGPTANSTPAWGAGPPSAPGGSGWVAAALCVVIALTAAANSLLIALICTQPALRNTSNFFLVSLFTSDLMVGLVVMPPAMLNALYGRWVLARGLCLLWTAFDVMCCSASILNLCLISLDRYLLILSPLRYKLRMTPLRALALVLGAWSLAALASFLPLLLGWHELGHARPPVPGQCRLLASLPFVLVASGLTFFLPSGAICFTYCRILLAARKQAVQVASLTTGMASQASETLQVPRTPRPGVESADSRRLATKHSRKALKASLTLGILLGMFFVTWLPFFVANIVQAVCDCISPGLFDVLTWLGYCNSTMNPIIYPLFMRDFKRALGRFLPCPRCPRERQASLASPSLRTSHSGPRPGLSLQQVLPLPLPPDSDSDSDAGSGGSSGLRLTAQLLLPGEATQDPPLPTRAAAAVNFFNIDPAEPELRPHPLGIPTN

| % inhibition of control agonist response (5-HT6 receptor) [%] | % inhibition of control antagonist response (5-HT6 receptor) [%] | SMILES | inhibition at 1 µM (H1 receptors) [%] | inhibition at 1 µM (M1 receptors) [%] | inhibition at 1 µM (5-HT2C receptors) [%] | inhibition at 1 µM (D3 receptors) [%] | Ki (5-HT7 receptor) [nM] |
| --- | --- | --- | --- | --- | --- | --- | --- |
| – | – | O=S(=O)(c1cccc(F)c1)n1ccc2c(N3CCNCC3)nc3ccccc3c21 [Compound 30, 1-((3-fluorophenyl)sulfonyl)-4-(piperazin-1-yl)-1H-pyrrolo[3,2-c]quinoline] | 41 | 15 | 11 | 57 | 2800 |
| 0.8 | 85.9 | O=S(=O)(c1cccc(Cl)c1)n1ccc2c(N[C@@H]3CCNC3)nc3ccccc3c21 [Compound 7, (R)-1-((3-chlorophenyl)sulfonyl)-N-(pyrrolidin-3-yl)-1H-pyrrolo[3,2-c]quinolin-4-amine] | – | – | – | – | – |
| −2.0 | 93.7 | O=S(=O)(c1cccc(Cl)c1)n1ccc2c(NC3CCNC3)nc3ccccc3c21 (centres unmarked) [Compound 5, 1-((3-chlorophenyl)sulfonyl)-N-(pyrrolidin-3-yl)-1H-pyrrolo[3,2-c]quinolin-4-amine] | – | – | – | – | – |
| 13.6 | 92.5 | O=S(=O)(c1cccc(Cl)c1)n1ccc2c(N[C@H]3CCNC3)nc3ccccc3c21 [Compound 6, (S)-1-((3-chlorophenyl)sulfonyl)-N-(pyrrolidin-3-yl)-1H-pyrrolo[3,2-c]quinolin-4-amine] | – | – | – | – | – |

— US20170239237A1, “PYRROLOQUINOLINE DERIVATIVES AS 5-HT6 ANTAGONISTS, PREPARATION METHOD AND USE THEREOF” (Uniwersytet Jagiellonski, priority 2013, published 2017)
